According to patent publication US20260382605A1, “REVERSIBLE MACROCYCLIC KINASE INHIBITORS” (published 2026):
Blank lines part the entries; values can stand above or below the molecule they belong to.

Chains of the proteins cited; added tags and fusions are not shown. Residues count along the entry.
UniProt P00533, 25-1210 limits assumed: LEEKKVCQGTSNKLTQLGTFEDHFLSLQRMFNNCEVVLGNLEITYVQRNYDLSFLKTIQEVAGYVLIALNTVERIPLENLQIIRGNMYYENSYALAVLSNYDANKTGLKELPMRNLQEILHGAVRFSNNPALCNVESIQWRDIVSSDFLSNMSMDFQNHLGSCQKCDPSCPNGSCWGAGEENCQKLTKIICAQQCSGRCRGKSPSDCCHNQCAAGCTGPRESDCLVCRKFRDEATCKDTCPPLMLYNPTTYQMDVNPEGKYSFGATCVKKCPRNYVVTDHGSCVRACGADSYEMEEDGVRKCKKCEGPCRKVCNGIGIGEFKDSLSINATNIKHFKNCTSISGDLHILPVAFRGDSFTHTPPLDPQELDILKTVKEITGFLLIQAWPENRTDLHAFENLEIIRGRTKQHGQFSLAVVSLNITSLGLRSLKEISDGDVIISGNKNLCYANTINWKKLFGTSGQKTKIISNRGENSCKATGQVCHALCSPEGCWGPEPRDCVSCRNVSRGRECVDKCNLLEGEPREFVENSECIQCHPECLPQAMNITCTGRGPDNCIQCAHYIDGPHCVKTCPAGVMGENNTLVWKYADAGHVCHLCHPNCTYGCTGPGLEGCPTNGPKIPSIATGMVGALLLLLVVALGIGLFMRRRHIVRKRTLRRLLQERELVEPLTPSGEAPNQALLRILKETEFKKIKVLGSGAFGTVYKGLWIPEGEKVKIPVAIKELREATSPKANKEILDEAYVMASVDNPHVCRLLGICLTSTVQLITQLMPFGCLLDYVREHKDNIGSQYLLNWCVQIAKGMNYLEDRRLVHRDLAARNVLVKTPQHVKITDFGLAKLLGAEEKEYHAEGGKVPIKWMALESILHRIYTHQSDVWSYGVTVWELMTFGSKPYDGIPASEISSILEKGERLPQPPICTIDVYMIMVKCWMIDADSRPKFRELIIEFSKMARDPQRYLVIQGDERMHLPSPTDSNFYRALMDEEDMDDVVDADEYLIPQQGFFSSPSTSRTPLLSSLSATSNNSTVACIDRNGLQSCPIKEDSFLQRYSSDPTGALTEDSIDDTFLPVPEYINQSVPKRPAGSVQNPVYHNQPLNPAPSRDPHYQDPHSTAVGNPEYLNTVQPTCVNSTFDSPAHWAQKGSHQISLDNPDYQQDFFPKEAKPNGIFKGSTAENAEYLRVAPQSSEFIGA
UniProt P42680, whole entry: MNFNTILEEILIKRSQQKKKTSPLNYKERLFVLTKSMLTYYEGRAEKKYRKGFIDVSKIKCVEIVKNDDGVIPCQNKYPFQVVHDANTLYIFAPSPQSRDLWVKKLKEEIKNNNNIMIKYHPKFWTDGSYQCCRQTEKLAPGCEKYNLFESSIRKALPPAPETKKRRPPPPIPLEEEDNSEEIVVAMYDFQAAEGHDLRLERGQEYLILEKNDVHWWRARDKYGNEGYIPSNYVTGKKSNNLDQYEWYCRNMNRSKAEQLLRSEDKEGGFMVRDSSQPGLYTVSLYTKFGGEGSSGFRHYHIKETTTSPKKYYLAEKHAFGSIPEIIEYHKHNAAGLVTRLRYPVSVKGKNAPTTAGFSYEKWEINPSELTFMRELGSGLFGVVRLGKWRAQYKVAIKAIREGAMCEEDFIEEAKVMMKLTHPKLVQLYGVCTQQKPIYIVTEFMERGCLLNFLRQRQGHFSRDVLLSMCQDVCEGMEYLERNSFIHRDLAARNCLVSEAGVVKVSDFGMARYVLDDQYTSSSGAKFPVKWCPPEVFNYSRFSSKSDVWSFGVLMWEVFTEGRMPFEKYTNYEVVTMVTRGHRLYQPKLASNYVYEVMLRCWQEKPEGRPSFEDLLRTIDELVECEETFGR
UniProt Q96GD4, whole entry: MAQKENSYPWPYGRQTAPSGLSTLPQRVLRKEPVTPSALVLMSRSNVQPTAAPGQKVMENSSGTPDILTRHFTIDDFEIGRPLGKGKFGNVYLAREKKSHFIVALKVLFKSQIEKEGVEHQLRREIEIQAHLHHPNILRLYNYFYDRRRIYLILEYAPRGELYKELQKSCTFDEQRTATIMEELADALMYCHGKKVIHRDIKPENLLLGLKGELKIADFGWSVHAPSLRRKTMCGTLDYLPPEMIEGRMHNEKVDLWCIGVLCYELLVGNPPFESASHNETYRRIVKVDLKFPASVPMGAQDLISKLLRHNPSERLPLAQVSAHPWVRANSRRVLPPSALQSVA
UniProt P07333, 20-972 limits assumed: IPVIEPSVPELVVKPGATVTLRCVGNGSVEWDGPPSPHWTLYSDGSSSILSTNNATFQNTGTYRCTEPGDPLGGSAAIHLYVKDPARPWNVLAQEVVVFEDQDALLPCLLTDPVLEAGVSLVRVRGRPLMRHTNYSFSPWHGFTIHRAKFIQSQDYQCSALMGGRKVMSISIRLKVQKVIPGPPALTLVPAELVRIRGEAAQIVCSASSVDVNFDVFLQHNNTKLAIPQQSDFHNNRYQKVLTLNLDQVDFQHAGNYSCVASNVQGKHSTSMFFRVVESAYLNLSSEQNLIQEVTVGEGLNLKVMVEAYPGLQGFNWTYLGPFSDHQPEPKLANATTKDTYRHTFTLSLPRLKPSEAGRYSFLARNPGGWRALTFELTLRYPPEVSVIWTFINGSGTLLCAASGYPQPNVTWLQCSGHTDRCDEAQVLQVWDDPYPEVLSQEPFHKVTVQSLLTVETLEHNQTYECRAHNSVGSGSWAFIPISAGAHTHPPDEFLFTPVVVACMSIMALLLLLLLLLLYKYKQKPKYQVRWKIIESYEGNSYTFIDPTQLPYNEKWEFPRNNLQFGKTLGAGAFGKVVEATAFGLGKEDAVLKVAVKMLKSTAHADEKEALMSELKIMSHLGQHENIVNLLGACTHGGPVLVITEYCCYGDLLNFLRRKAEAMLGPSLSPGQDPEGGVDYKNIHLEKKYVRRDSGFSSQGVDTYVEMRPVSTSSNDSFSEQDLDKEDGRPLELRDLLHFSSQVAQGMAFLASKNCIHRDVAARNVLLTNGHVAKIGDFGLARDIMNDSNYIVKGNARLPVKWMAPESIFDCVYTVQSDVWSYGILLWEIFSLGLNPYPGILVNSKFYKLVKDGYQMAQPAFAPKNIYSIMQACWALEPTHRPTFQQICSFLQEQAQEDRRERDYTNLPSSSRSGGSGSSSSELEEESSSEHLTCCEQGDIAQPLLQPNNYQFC
UniProt P09619, 33-1106 limits assumed: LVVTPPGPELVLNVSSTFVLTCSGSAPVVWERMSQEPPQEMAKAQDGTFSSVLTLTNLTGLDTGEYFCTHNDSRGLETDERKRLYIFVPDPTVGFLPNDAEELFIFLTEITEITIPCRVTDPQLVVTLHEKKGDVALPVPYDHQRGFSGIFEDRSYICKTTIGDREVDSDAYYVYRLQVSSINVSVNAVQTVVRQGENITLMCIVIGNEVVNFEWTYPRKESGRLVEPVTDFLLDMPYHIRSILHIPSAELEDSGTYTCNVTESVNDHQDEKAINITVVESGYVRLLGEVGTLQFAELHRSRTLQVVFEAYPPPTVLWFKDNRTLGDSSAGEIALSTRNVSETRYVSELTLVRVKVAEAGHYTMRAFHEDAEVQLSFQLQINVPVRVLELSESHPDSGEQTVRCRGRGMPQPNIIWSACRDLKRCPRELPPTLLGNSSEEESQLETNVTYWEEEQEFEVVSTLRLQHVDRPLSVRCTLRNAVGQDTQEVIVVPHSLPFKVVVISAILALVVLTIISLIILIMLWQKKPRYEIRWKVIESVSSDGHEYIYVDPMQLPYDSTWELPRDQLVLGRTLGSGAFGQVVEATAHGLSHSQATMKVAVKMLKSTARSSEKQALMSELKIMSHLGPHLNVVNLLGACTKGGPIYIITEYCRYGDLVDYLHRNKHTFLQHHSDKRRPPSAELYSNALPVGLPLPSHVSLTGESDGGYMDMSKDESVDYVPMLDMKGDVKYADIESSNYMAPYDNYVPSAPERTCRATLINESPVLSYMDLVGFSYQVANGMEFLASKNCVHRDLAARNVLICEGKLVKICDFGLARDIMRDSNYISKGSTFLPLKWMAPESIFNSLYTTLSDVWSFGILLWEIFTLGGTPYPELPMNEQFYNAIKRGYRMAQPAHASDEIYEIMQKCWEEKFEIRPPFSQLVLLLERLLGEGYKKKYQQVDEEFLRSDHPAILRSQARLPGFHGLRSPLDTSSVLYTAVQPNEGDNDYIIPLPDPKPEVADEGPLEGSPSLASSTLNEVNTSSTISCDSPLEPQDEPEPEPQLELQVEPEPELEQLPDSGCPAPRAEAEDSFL
UniProt P06239, whole entry: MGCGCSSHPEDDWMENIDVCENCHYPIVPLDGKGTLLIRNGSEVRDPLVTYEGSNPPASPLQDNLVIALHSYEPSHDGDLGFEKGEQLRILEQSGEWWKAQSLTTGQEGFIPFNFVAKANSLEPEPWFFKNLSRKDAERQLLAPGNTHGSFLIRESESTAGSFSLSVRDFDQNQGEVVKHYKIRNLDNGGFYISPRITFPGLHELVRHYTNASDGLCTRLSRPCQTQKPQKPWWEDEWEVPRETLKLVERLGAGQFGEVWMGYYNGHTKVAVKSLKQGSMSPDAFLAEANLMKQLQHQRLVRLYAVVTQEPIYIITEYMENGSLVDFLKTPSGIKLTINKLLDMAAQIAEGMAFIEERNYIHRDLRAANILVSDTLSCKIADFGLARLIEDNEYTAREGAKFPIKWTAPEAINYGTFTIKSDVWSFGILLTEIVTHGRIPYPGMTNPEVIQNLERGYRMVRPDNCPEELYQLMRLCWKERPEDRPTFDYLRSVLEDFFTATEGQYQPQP
UniProt P11362, 398-822 limits assumed: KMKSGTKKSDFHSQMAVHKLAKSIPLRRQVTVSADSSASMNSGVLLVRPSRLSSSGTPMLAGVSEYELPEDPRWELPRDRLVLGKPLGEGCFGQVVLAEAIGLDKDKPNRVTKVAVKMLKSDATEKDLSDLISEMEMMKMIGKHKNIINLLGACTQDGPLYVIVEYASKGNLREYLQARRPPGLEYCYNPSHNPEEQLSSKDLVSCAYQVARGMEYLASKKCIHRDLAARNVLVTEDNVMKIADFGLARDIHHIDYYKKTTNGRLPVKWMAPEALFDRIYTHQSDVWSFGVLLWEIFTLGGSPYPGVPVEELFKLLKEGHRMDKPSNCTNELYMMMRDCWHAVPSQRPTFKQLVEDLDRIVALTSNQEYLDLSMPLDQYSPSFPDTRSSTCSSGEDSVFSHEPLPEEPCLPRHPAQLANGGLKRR
UniProt P22607, 436-806 limits assumed: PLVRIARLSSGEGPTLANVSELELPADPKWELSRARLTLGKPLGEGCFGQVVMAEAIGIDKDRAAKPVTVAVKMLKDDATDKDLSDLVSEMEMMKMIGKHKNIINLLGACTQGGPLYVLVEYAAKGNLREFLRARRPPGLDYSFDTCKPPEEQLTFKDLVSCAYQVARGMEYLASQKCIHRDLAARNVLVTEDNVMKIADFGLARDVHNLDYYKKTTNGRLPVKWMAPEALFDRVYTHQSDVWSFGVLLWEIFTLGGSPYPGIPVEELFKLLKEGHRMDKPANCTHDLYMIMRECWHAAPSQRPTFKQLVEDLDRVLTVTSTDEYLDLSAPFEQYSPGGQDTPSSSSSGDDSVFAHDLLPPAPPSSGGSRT

Columns and labels:
[1] = target: EGFR (Homo sapiens, UniProt P00533); assay: Binding kinetics assay (surface plasmon resonance) EGFR; conditions: SPR, 22 °C
From the text: (§1) Binding Kinetics Assay wt-BTK, BTK C481S, LCK, FGFR1, FLT3, PDGFR-β, FMS, LYN, MEK1, AUR-B. ITK. VEGFR, EGFR, FGFR3, AXL, c-MET, SRC, YES, ABL, RET and IGFR1 (Surface Plasmon Resonance)
(§2) Streptavidin-coated chips (Cat. No. BR100531), disposables and maintenance kits for Biacore were purchased from Cytiva (Eindhoven, The Netherlands). Biotinylated wt-BTK enzym (Carna Biosciences, cat. no. 08-480-20N), BTK C481S (Carna Biosciences, cat. no. 08-417-20N), LCK (Carna Biosciences, cat. no. 08-470-20N), FGFR1 (Carna Biosciences, cat. no. 08-435-20N), FLT3 (Carna Biosciences, cat. no. 08-454-20N), PDGFR-β (Carna Biosciences, cat. no. 08-458-20N), FMS (Carna Biosciences, cat. no. 08-455-20N), LYN (Carna Biosciences, cat. no. 08-471-20N), MEK1 (Carna Biosciences, cat. no. 07-441-10-20N), AUR-B (Carna Biosciences, cat. no. 05-402-21N), ITK (Carna Biosciences, cat. no. 08-481-20N), VEGFR (Carna Biosciences, cat. no. 08-491-20N), EGFR (Carna Biosciences, cat. no. 08-415-20N), FGFR3 (Carna Biosciences, cat. no. 08-433-20N), AXL (Carna Biosciences, cat. no. 08-407-20N), c-MET (Carna Biosciences, cat. no. 08-451-20N), SRC (Carna Biosciences, cat. no. 08-473-20N), YES (Carna Biosciences, cat. no. 08-475-20N), ABL (Carna Biosciences, cat. no. 08-401-20N), RET (Carna Biosciences, cat. no. 08-459-20N) or IGFR1 (Carna Biosciences, cat. no. 08-441-20N) were immobilized on a streptavidin-coated chip to a level of about 8000 resonance units (RU) using Biacore buffer (50 mM Tris pH 7.5, 0.05% (v/v) Tween-20, 150 mM NaCl and 5 mM MgCl2)+1 mM TCEP. Remaining streptavidin was blocked with biocytin. Immobilization was performed at 4 °C. Subsequent assay steps were conducted at 22 °C. After changing buffer to Biacore buffer with 1% (v/v) dimethylsulfoxide (DMSO), a pre-run was performed for a period of at least 30 min at a flow rate of 30 μl/min to obtain a stable surface. The kinetic constants of the compounds were determined with single cycle kinetics with five consecutive injections with an increasing compound concentration with ranges of 3.16-316 nM. Experiments were performed with an association time of 100 s per concentration and a dissociation time of 1200 s, except for compounds with a long target residence time, such as irreversible inhibitors, where dissociation time was increased. To circumvent problems of mass transport limitation, a flow rate of 30 μl/min was used. A blank run with the same conditions was performed before the compound was injected. The SPR sensorgrams were analyzed with Biacore Evaluation Software by using a method of double referencing. First the reference channel was subtracted from the channel containing immobilized protein. Subsequently, the reference curve obtained with buffer injections was subtracted. The resulting curve was fitted with a 1:1 binding model. Compounds that bound according to an induced fit model were fitted with a two-state reaction model. The kinetic constants (ka, ka, KD) of duplicates were geometrically averaged. Target residence time (τ) for the 1:1 binding model was calculated from the dissociation constant kd with the formula T=1/kd. Target residence for an induced fit model was calculated as described (Tummino and Copeland, 2008).

[2] = target: Tec (Homo sapiens, UniProt P42680); assay: Binding kinetics assay TEC (surface plasmon resonance); conditions: SPR, His-tagged TEC on Ni-NTA chip
Method: Binding Kinetics Assay TEC (Surface Plasmon Resonance)
An aliquot of N-terminal His-tagged TEC (Eurofins DiscoverX, cat. no. 14-801) was thawed, diluted to 4.8 μg/mL in pre-cooled Biacore buffer (10 mM Tris pH 7.5, 0.05% Tween, 150 mM NaCl and 5 mM MgCl2) and immobilized on a Ni-NTA chip with His-tag capturing, followed by amine-coupling. First, the surface of the chip was first washed for 420 seconds with 0.35 M EDTA, subsequently loaded with 1 mM NiCl for 420 seconds, followed by activation for 1000 seconds with a 1:1 dilution of 0.2 M 1-ethyl-3-(3-dimethylaminopropyl) carbodiimide hydrochloride (EDC) and 50 mM N-hydroxysuccinimide (NHS). His-tagged protein was immobilized on the surface until an immobilization level of 4000 RU was obtained. Remaining active groups on the sensor surface were blocked by injection of 1 M ethanolamine for 420 seconds. The immobilization procedure was performed at 22 °C. Channel 1 was immobilized as described above without injection of His-tagged protein and used as a reference channel to correct for buffer effects, other channels were immobilized as described above. After immobilization, buffer was changed to Biacore buffer containing 1% DMSO. A pre-run was performed for a period of ≥30 min at a flow rate of 30 μL/min until a stable surface was obtained. The kinetic constants of the compounds were determined with single cycle kinetics with five consecutive injections with an increasing compound concentration with ranges of 3.16-316 nM. Experiments were performed with an association time of 100 s per concentration and a dissociation time of 1200 s, except for compounds with a long target residence time, such as irreversible inhibitors, where dissociation time was increased. To circumvent problems of mass transport limitation, a flow rate of 30 μl/min was used. A blank run with the same conditions was performed before the compound was injected. The SPR sensorgrams were analyzed with Biacore Evaluation Software by using a method of double referencing. First the reference channel was subtracted from the channel containing immobilized protein. Subsequently, the reference curve obtained with buffer injections was subtracted. The resulting curve was fitted with a 1:1 binding model. Compounds that bound according to an induced fit model were fitted with a two-state reaction model. The kinetic constants (ka, […], KD) of duplicates were geometrically averaged. Target residence time (τ) for the 1:1 binding model was calculated from the dissociation constant kd with the formula T=1/kd. Target residence for an induced fit model was calculated as described (Tummino and Copeland, 2008).

[3] = system: REC-1 mantle cell lymphoma cells; assay: Cell proliferation assay REC-1; conditions: read-out: IC50 value, REC-1 cells, 120 hours
Method: REC-1 mantle cell lymphoma cells were purchased from Deutsche Sammlung von Mikroorganismen und Zellkulturen (cat. no. ACC 584, DSMZ) and cultured in RPMI-1640 cell culture medium (cat. no. 61870036, Life Technologies), supplemented with 18% (v/v) fetal bovine calf serum and 1% penicillin/streptavidin. 1200 cells per well (in 45 μl) were seeded in a white 384-well culture plate (cat. no. 781080, Greiner Bio-One) and allowed to rest for at least 5 hours at 37 °C, 95% humidity, and 5% CO2. 5 μl compound solution was added to the cells and incubation was continued for 120 hours (5 days), followed by addition of 24 μl ATPlite 1Step™ (PerkinElmer, Groningen, The Netherlands) solution was added to each well. Luminescence was recorded on an Envision multimode reader. The cell signal at the start of incubation was recorded separately in order to distinguish between cell population growth and cell death. In addition, maximum growth was determined by incubation of a duplicate without compound in the presence of 0.3% DMSO. Percentage growth was used as the main y-axis signal. IC50s were fitted by non-linear regression using IDBS XLfit™5 using a 4-parameter logistic curve, yielding a maximum signal, minimum signal, hill-parameter and IC50.

[4] = target: AurB (Homo sapiens, UniProt Q96GD4); assay: Binding kinetics assay (surface plasmon resonance) AUR-B; conditions: SPR, 22 °C
From the text: as §1, §2

[5] = target: Fms (Homo sapiens, UniProt P07333); assay: Binding kinetics assay (surface plasmon resonance) FMS; conditions: SPR, 22 °C
From the text: as §1, §2

[6] = target: PDGFrB (Homo sapiens, UniProt P09619); assay: Binding kinetics assay (surface plasmon resonance) PDGFR-β; conditions: SPR, 22 °C
From the text: as §1, §2

[7] = target: VEGFr (Homo sapiens, UniProt P35968); assay: Binding kinetics assay (surface plasmon resonance) VEGFR; conditions: SPR, 22 °C
From the text: as §1
as §2, with “Immobilization was performed at 4 °C. Subsequent assay steps were conducted at 22 °C. After changing buffer to Biacore buffer with 1% (v/v) dimethylsulfoxide (DMSO), a pre-run was performed for a period of at least 30 min at a flow rate of 30 μl/min to obtain a stable surface.” left out, “Experiments were performed with an association time of 100 s per concentration and a dissociation time of 1200 s, except for compounds with a long target residence time, such as irreversible inhibitors, where dissociation time was increased. To circumvent problems of mass transport limitation, a flow rate of 30 μl/min was used. A blank run with the same conditions was performed before the compound was injected.” left out, “First the reference channel was subtracted from the channel containing immobilized protein. Subsequently, the reference curve obtained with buffer injections was subtracted. The resulting curve was fitted with a 1:1 binding model. Compounds that bound according to an induced fit model were fitted with a two-state reaction model. The kinetic constants (ka, ka, KD) of duplicates were geometrically averaged.” left out

[8] = target: T1, LCK (Homo sapiens, UniProt P06239); assay: Binding kinetics assay (surface plasmon resonance) LCK; conditions: SPR, 22 °C
From the text: as §1, §2

[9] = target: T1, LCK; assay: Biochemical kinase assay LCK (IMAP); conditions: read-out: IC50 value; LCK 2.9 nM, 4 μM ATP, 1 h pre-incubation, 2 h reaction
Method: Biochemical Kinase Assay LCK
To determine the inhibitory activity of compounds on LCK enzyme activity, the IMAP® assay (Molecular Devices) was used. Compounds were serially diluted in dimethylsulfoxide (DMSO) and subsequently in 4% DMSO in IMAP reaction buffer, which consists of 10 mM Tris-HCl, pH 15 7.5, 10 mM MgCl2, 0.01% Tween-20, 0.1% NaN3 and 1 mM freshly prepared dithiotreitol (DTT). Compound solution was mixed with an equal volume of full-length Lck enzyme (Carna Biosciences, cat. no. 08-170) in IMAP reaction buffer. After pre-incubation of 1 hour in the dark at room temperature, fluorescein-labeled MBP-derived substrate peptide (Molecular Devices, cat. no. RP 7123) was added, followed by ATP to start the reaction. Final enzyme concentration was 2.9 nM final substrate concentration 100 nM, and final ATP concentration was 4 μM. The reaction was allowed to proceed for 2 hours at room temperature in the dark. The reaction was stopped by quenching with IMAP progressive binding solution according to the protocol of the manufacturer (Molecular Devices). Fluorescein polarization was measured on an Envision multimode reader (Perkin Elmer, Waltham, MA, U.S.A.). IC50 were calculated using XLfit™5 software (ID Business Solutions, Ltd., Surrey, U.K.).

[10] = target: FGFR1 (Homo sapiens, UniProt P11362); assay: Binding kinetics assay (surface plasmon resonance) FGFR1; conditions: FGFR1, SPR, 22 °C
From the text: as §1
as §2, with “First the reference channel was subtracted from the channel containing immobilized protein. Subsequently, the reference curve obtained with buffer injections was subtracted. The resulting curve was fitted with a 1:1 binding model. Compounds that bound according to an induced fit model were fitted with a two-state reaction model. The kinetic constants (ka, ka, KD) of duplicates were geometrically averaged.” left out

[11] = target: FGFR3 (Homo sapiens, UniProt P22607); assay: Binding kinetics assay (surface plasmon resonance) FGFR3; conditions: FGFR3, SPR, 22 °C
From the text: as §1, §2

Kd [1]: < 5 nM
Target residence time Tau (τ) [1]: A (τ between 0.2 h and 1 h)
Kd [2]: < 5 nM
Target residence time Tau (τ) [2]: A (τ between 0.2 h and 1 h)
IC50 [3]: < 50 nM
Structure (SMILES): C[C@@H]1CC(=O)N[C@@H]2CCC[C@H](C2)n2nc(-c3ccc(C(=O)Nc4cc(C(F)(F)F)ccn4)cc3)c3c(N)ncc(c32)/C=C/CCN1C

Kd [4]: 5 to 50 nM
Kd [5]: 5 to 50 nM
Target residence time Tau (τ) [5]: B (τ between 1 and 3 h)
Kd [6]: 5 to 50 nM
Target residence time Tau (τ) [6]: A (τ between 0.2 h and 1 h)
Kd [7]: < 5 nM
Structure (SMILES): C[C@@H]1CCn2nc(-c3ccc(NC(=O)Nc4cccc(F)c4)cc3)c3c(N)ncc(c32)/C=C/CCOCCC(=O)N1

Kd [8]: < 5 nM
IC50 [9]: < 5 nM
Structure (SMILES): COc1cc(-c2nc3n4c(cnc(N)c24)/C=C/CCOCCC(=O)N[C@@H]2CC[C@@H]3C2)ccc1NC(=O)c1cc2c(OC)cccc2n1C

Kd [10]: < 5 nM
Target residence time Tau (τ) [10]: A (τ between 0.2 h and 1 h)
Kd [11]: 5 to 50 nM
Target residence time Tau (τ) [11]: A (τ between 0.2 h and 1 h)
Structure (SMILES): COc1cc(C#Cc2nn3c4c(cnc(N)c24)/C=C/CCOCCC(=O)N[C@@H]2CCC[C@@H]3C2)cc(OC)c1
